Data reported in PubChem BioAssay AID652039 (The Scripps Research Institute Molecular Screening Center, 2013).
This is a selection; strong and weak results do not stand in their true shares. Active and inactive are the calls of the source.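 The calls were made as follows: active = activation above the mean of all tested compounds plus 3 SD, computed per campaign excluding outliers beyond control limits (cut at about 13% in these data); inactive = the rest.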

Amino acid sequences for entries named in this document (tags omitted). A change or cut given only in a name is not applied to a line headed by its entry.
UniProt P49862: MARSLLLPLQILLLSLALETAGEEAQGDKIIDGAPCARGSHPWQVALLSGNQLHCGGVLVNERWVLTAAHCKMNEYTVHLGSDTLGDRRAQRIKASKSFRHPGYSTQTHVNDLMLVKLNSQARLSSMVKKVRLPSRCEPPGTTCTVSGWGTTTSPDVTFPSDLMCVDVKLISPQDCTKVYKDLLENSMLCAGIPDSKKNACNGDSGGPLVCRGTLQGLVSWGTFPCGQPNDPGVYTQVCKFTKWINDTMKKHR

Target: Kallikrein-7 (Homo sapiens) (UniProt P49862)
Assay: proKLK7 zymogen activators, primary screen, biochemical, fluorescence intensity (AID 652039)
Conditions: purified proKLK7, EDANS-DABCYL substrate fluorescence; at 7 µM; hits give high values; 100% is mature enzyme control, 0% vehicle

Compound | activation
Oc1ccccc1CNc1ccccn1 | inactive: 0.68%
O=C(NC(Sc1ccncn1)C(Cl)(Cl)Cl)c1ccccc1 (stereo not given) | inactive: -0.12%
CC(C)CC(=O)NC(Sc1ccc(Cl)cc1)C(Cl)(Cl)Cl (stereo not given) | inactive: 0.14%
Nc1cc(N)c2nonc2c1[N+](=O)[O-] | inactive: 0.14%
CN(C(=O)Cc1ccc(Cl)c(Cl)c1)[C@H]1CCCC[C@H]1N1CCCC1 | inactive: -0.89%
Cc1ccc(N/C(=N/P(=O)(N2CCOCC2)N2CCOCC2)N2CCOCC2)cc1 | inactive: 0.32%
NC(=O)c1cc([N+](=O)[O-])cc([N+](=O)[O-])c1N | inactive: 0.2%
Clc1ccc(Cl)c(NC2=NCC(CBr)S2)c1 (stereo not given) | inactive: 0.41%
CN1CCCC(OC(=O)C(c2ccccc2)c2ccccc2)C1 (stereo not given) | inactive: 0.16%
COc1ccccc1OP(=O)(Nc1ccc(C)cn1)Oc1ccccc1OC | inactive: -0.21%
Cc1ccc(OP(=O)(Nc2nccs2)Oc2ccc(C)cc2)cc1 | inactive: 0.14%
Nc1cccc2ccc([As](=O)(O)O)cc12 | active: 24.6%
CN(C(=O)Cc1ccccc1)C1CC[C@@]2(CCCO2)C[C@@H]1N1CCCC1 (stereo not given in full) | inactive: -0.59%
CCN(N=Nc1nonc1N)c1nonc1N | inactive: 0.23%
CN(C)P(=O)(N(C)C)n1c(Nc2ccccc2)nnc1-c1ccccc1 | inactive: 0.99%
O=P(Nc1nc2ccc(Cl)cc2s1)(c1ccccc1)c1ccccc1 | inactive: -0.34%
O=C(O)c1ccccc1[As](=O)(O)O | inactive: -0.55%
CC(=O)Nc1ccc([As](=O)(O)O)cc1 | inactive: -0.08%
CCCC1OP(N)(=O)OCC1CC (stereo not given) | inactive: -0.14%
CCn1c(=O)n(C2CCN(CC3CCCCCCC3)C[C@H]2CO)c2ccccc21 (stereo not given in full) | inactive: 0.46%
CCOP(=O)(Nc1ccccc1)OCC | inactive: -0.24%
Cc1cc(SC(NC(=O)c2ccc(F)cc2)C(Cl)(Cl)Cl)ncn1 (stereo not given) | inactive: -0.46%

Compound | activation
CN(C(=O)Cc1ccc(Cl)c(Cl)c1)[C@H]1CCCC[C@@H]1N1CCCC1 | inactive: 0.02%
Cc1ccc(NP(=O)(Oc2ccccc2F)Oc2ccccc2F)nc1 | inactive: 0.88%
O=[N+]([O-])c1ncn(CCn2ncnc2[N+](=O)[O-])n1 | inactive: 0.35%
CC(C)(C)C(=O)NC(Sc1ccncn1)C(Cl)(Cl)Cl (stereo not given) | inactive: 0.46%
O=C(O)CNc1ccc([As](=O)(O)O)cc1 | inactive: -0.46%
O=[N+]([O-])c1cccc(NC2=NCC(CBr)S2)c1 (stereo not given) | inactive: -0.45%
COC(=O)C1(C)COP(=O)(Nc2ccccc2)OC1 (stereo not given) | inactive: -0.33%
O=P1(N(CCCl)CCCl)OCCCS1 (stereo not given) | inactive: -0.03%
O=C(Nc1cc([As](=O)(O)O)ccc1O)c1ccccc1 | inactive: -0.49%
CCN(/C(=N/P(=O)(N1CCOCC1)N1CCOCC1)N1CCOCC1)c1ccc(OC)cc1 | inactive: -0.32%
Nc1ccc([As](=O)(O)c2ccc(N)cc2)cc1 | inactive: 0.07%
C[N+]1=C2C=CC=CC=C2SC12C([N+](=O)[O-])=CC([N+](=O)[O-])=C[C-]2[N+](=O)[O-] (stereo not given) | inactive: 0.03%
c1cc(-c2nn[nH]n2)ccc1-c1nn[nH]n1 | inactive: -0.6%
CC1CCN(C(=O)Oc2c(Cl)cc(Cl)c3cccnc23)CC1 | inactive: -0.14%
CC(C)=N/N=C(\N)N[N+](=O)[O-] | inactive: 0.23%
CC(C)c1nc(Nc2ccccc2)n(P(=O)(N(C)C)N(C)C)n1 | inactive: -0.21%
CN(C)C(=O)OCCc1n(C)cc[n+]1C | inactive: -0.06%
COc1ccc(C2=NCC(CBr)S2)cc1 (stereo not given) | inactive: 0.04%
Cc1ccc(NP(=O)(Oc2ccccc2)Oc2ccccc2)nc1 | inactive: 1.36%
O=[N+]([O-])c1cc([N+](=O)[O-])c(CCNc2ccccc2)c([N+](=O)[O-])c1 | inactive: -0.14%
CCc1nc2c(n1)c1c(non1O)c1c2no[n+]1[O-] | inactive: -0.1%
CC(=O)N1C2C3N(C(C)=O)C1C1N(C(C)=O)C(C(N1C(C)=O)N3C(C)=O)N2C(C)=O | inactive: -0.15%

Compound | activation
O=[N+]([O-])c1cccc2n[nH]nc12 | inactive: -0.44%
O=P(Nc1nccs1)(c1ccccc1)c1ccccc1 | inactive: -0.43%
CC(C)C(=O)NC(Sc1ccccc1)C(Cl)(Cl)Cl (stereo not given) | inactive: 0.25%
c1nnnn1CCn1cnnn1 | inactive: 0%
O=[As](O)(c1ccccc1)c1ccc(O)cc1 | inactive: 0.22%
O=[N+]([O-])c1ncn(CCn2cnc([N+](=O)[O-])n2)n1 | inactive: 0.12%
CC(=O)NC(SC(=S)N(C)C)C(Cl)(Cl)Cl (stereo not given) | inactive: -0.07%
O=C(OC1CN2CCC1CC2)c1cccc(Cl)c1 (stereo not given) | inactive: 0.66%
C/C(N)=N\P(=O)(OCc1ccccc1)OCc1ccccc1 | inactive: 0.35%
Nc1ccc([As](=O)(O)c2ccc([N+](=O)[O-])cc2)cc1 | inactive: 0.32%
C(Cc1nn[nH]n1)Cc1nn[nH]n1 | inactive: 0.5%
CN(C)C1(CNC(=O)c2ccc(Cl)c(S(N)(=O)=O)c2)CCCCC1 | inactive: 0.74%
O=P(Nc1ccccn1)(c1ccc(Br)cc1)c1ccc(Br)cc1 | inactive: -0.32%
Nc1ccc(CCCCOc2ccccc2)cc1 | inactive: -0.57%
COc1ccc(N)c([N+](=O)[O-])c1[N+](=O)[O-] | inactive: -0.01%
O=P(Nc1nc2ccccc2s1)(c1ccccc1)c1ccccc1 | inactive: -0.1%
C[C@H]1OP(=O)(Oc2ccccc2)[C@H](O)[C@H](O)[C@H]1N=[N+]=[N-] (stereo not given in full) | inactive: 0.04%
O=C(OC1CN2CCC1CC2)c1ccccc1 (stereo not given) | inactive: 0.44%
CCC(=O)N1C2C3N(C(=O)CC)C1C1N(C(=O)CC)C(C(N1C(=O)CC)N3C(=O)CC)N2C(=O)CC | inactive: 0.23%
COC(=O)c1cc2c(s1)N=C(c1ccccc1)N(C)P2(=O)N1CCOCC1 (stereo not given) | inactive: -0.47%
Cc1ccc(OP(=O)(Nc2ccccn2)Oc2ccc(C)cc2)cc1 | inactive: -0.12%
